These are literature values, as cited in PMC8048568, “Synthesis of σ Receptor Ligands with a Spirocyclic System Connected with a Tetrahydroisoquinoline Moiety via Different Linkers” (Chemmedchem, 2021).

The data set addresses σ2 receptor. The conditions noted are these: read-out: K i σ2; cited from earlier work.

Regarding `COc1cccc2c1CCCC2CCCN1CCN(C2CCCCC2)CC1` (stereo not shown) [PB28], the Ki was 0.68 nM.
